This is an account of results in ChEMBL document CHEMBL3244331, “2,6-Methano-3-benzazocine-11-ropanols. Lack of antagonism between optical antipodes and observation of potent narcotic antagonism by two n-methyl derivatives” (1978).

The assay concerns Rattus norvegicus. Kind of assay: Narcotic antagonist activity in rat assessed as antagonism of phenazocine response at 80 mg/kg, sc by tail flick assay. (In general: Hot-plate and tail-flick tests time the reaction to a heat stimulus.)

Calls of active or inactive are those of the source. The rule behind the calls is not given here.

Consider `CC(C)(C)C(C)(O)CC[C@]1(C)[C@H]2Cc3ccc(O)cc3[C@@]1(C)CCN2CC1CC1` (stereo partly specified), for which the inhibition result is “inactive”.
